Biological target: PI3Kα Q859D (Homo sapiens, UniProt P42336, Q859D)
Assay: Inhibition of in vitro mutant PI3Kα Q859D
Assay type: biochemical

Protein sequences, listed by entry. Tags and fused reporters are not part of them.
UniProt P42336, whole entry Q859D: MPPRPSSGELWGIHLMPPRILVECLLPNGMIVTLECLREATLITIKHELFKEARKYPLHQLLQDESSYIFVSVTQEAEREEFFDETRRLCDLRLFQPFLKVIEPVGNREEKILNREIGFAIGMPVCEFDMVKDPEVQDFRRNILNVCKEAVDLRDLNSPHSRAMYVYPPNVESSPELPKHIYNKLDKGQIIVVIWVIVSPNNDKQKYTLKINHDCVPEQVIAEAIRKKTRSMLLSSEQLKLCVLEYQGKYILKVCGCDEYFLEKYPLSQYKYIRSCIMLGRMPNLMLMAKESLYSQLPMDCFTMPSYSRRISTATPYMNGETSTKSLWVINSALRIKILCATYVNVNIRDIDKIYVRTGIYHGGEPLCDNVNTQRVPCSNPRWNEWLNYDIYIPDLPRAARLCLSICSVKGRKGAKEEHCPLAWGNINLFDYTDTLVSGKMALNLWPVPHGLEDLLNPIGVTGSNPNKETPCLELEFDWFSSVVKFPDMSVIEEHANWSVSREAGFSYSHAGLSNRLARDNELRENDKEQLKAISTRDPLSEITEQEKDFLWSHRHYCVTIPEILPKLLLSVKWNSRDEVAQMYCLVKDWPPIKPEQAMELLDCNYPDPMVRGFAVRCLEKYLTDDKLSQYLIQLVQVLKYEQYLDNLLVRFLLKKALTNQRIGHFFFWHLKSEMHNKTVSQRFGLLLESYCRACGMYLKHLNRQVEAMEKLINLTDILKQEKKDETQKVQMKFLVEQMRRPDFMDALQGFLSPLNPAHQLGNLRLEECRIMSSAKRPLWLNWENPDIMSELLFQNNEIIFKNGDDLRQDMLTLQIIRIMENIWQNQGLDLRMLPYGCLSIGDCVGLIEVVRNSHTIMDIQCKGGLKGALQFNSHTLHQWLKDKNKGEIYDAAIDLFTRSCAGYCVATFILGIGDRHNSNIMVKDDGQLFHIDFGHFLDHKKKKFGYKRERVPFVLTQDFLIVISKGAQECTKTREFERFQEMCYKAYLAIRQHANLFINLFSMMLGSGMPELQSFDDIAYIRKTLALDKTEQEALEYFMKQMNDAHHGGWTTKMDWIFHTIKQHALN

`C[C@H](N)C(=O)N1CCN(c2nc(N3CCOCC3)nc(-n3c(C(F)F)nc4ccccc43)n2)CC1` [Compound 19] gave an IC50 of 2300 nM.
